Assay [1] deals with human GLP-1R (Homo sapiens, UniProt P43220). The experiment in a line: Agonist activity on human GLP-1R, CRE-luciferase reporter assay (increase in intracellular cAMP as indicator). In kind it is cell-based. Further details: expressed in transfected cells. To be noted: hGLP-1R/CRE-luc/CHO-K1 cells, 4 h incubation; for EC50: read-out: GLP1R EC50 nM (B). For orientation: In a reporter assay the amount or activity of a reporter protein is the signal.

Chains of the proteins cited; added tags and fusions are not shown. Residues count along the entry.
UniProt P43220, 24-463: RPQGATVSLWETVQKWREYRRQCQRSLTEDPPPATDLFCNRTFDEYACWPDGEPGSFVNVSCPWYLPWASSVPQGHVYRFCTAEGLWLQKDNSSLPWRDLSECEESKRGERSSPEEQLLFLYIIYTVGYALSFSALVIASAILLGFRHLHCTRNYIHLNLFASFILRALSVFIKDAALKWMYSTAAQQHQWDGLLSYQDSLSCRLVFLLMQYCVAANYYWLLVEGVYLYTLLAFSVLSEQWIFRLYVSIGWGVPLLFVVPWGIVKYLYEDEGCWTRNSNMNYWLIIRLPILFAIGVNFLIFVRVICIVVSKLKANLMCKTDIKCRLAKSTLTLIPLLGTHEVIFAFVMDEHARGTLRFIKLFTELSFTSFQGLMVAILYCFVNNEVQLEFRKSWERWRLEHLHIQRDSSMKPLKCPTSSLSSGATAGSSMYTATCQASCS

Assay [2] deals with T1, human GIPR (Homo sapiens, UniProt P48546).
T1 construct: expressed in transfected cells
T1 sequence (P48546 22-466): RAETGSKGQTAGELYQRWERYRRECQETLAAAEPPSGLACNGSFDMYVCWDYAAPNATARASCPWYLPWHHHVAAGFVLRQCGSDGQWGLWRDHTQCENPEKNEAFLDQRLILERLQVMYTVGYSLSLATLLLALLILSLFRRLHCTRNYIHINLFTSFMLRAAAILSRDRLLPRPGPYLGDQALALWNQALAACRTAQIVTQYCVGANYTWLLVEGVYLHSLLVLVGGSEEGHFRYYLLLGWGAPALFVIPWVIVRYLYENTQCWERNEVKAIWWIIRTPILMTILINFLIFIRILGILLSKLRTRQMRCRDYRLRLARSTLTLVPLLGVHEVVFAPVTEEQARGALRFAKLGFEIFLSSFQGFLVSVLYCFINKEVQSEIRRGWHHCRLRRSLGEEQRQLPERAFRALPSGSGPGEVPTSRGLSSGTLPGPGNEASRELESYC
The experiment in a line: Agonist activity on human GIPR, CRE-luciferase reporter assay (increase in intracellular cAMP as indicator). In kind it is cell-based. To be noted: hGIPR/CRE-LUC/CHO-K1 cells, 4 h incubation; for EC50: read-out: GIPR EC50 nM (A).

As to “YAibEGTFTSDYSIAibLDKIAQ(Lys-(ethylene glycol)2-C20 diacid)AFVQWLIAGGPSSGAPPPS-NH2 [Compound 18]”, in assay [1], the “GLP1R pEC50” value was found to be 11.08.
“YD-AlaEGTFISDYSIAMD(Lys-(OEG-gGlu)2-Oda)IHQQDFVNWLLAQKGKICNDWKHNIIQ-NH2 [Compound 13]”: in assay [1], the “GLP1R pEC50” value amounted to 6.29 and the EC50 was determined as 513 nM. For the same substance, in assay [2], the “GIPR pEC50” value amounted to 10.62 and the EC50 amounted to 0.024 nM.
On to “YAibEGTFISDYSIALDKIHQQ(Lys-(ethylene glycol)2-C15 diacid)FVNWLLAQRG-OH [Compound 24]”, for which, in assay [1], the “GLP1R pEC50” value was determined as 7.48 and the EC50 turned out to be 33.1 nM. In assay [2], the EC50 was less than 0.001 nM.
With “YAibEGTFTSDYSIAibLDKIAQ(Lys-(ethylene glycol)2-C20 diacid)AFVQWLIAGGPSSGAPPPS-NH2 [Compound 34]”, in assay [1], the “GLP1R pEC50” value is 10.77 and the EC50 is less than 0.02 nM. For the same substance, in assay [2], the “GIPR pEC50” value is listed as 12.00 and the EC50 was 0.001 nM.
Regarding “YAibEGTFISDYSIALDKI(Lys-(ethylene glycol)2-C15 diacid)QQDFVNWLLAQRG-OH [Compound 25]”, the EC50 in assay [2] is less than 0.001 nM.
In the case of “YAibEGTFISDYSIELEK(Lys-(ethylene glycol)2-C15 diacid)AQRAFVEWLLAQGPSSGAPPPS-NH2 [Compound 23]”, in assay [1], the “GLP1R pEC50” value was 8.57. Besides, the EC50 is 2.69 nM in assay [1] and 0.001 nM in assay [2].
For “YAibEGTFISDYSIALDKIHQQ(Lys-(ethylene glycol)2-C15 diacid)FVNWLLAQRPSSGAPPPS-NH2 [Compound 29]”, in assay [1], the “GLP1R pEC50” value was 7.01 and the EC50 was 97.7 nM. Moreover, in assay [2], the EC50 is less than 0.001 nM.
For “YAibEGTFISDYSIELDK(Lys-(ethylene glycol)2-C15 diacid)AAQAFIEWLLAQGPSSGAPPPS-NH2 [Compound 20]”, in assay [1], the “GLP1R pEC50” value was found to be 6.37 and the EC50 was 427 nM. Further, in assay [2], the “GIPR pEC50” value was determined as 11.82 and the EC50 was 0.002 nM.
Consider “YAibEGTFISDYSIALDK(Lys-(ethylene glycol)2-C15 diacid)HQQDFVNWLLAQRG-OH [Compound 26]”, for which, in assay [2], the concentration giving a half-maximal response (EC50) is 0.001 nM.
For the substance “YAibEGTFISDYSIALDKIHQQ(Lys-(ethylene glycol)2-C15 diacid)FVNWLLAQR-NH2 [Compound 28]”, in assay [1], the “GLP1R pEC50” value was determined as 7.13 and the EC50 was determined as 74.1 nM. The EC50 in assay [2] is less than 0.001 nM.
For “YAibEGTFISDYS(Lys-(ethylene glycol)2-C15 diacid)ALDKIHQQDFVNWLLAQRG-OH [Compound 32]”, in assay [1], the “GLP1R pEC50” value turned out to be 6.85 and the EC50 turned out to be 141 nM. For the same substance, in assay [2], the “GIPR pEC50” value was 11.77 and the EC50 is 0.0017 nM.
“YAibEGTFISDYSIALDKIHQQDFVNWLLAQ(Lys-(ethylene glycol)2-C15 diacid)G-OH [Compound 31]”: in assay [1], the “GLP1R pEC50” value was determined as 6.85 and the EC50 came to 141 nM. Further, in assay [2], the “GIPR pEC50” value is recorded as 11.77 and the EC50 stood at 0.002 nM.

In general, EC50 refers to the midpoint of the concentration-response curve.

(Values after patent publication US20220016215A1, “GIP RECEPTOR AGONIST PEPTIDE COMPOUNDS AND USES THEREOF” (TAKEDA PHAARMACEUTICAL COMPANY LIMITED, priority 2018, published 2022).)
